{"sequences": {"note": "Protein sequences, listed by entry. Tags and fused reporters are not part of them. Residues count along the entry.", "UniProt P07711, 114-288 limits assumed": "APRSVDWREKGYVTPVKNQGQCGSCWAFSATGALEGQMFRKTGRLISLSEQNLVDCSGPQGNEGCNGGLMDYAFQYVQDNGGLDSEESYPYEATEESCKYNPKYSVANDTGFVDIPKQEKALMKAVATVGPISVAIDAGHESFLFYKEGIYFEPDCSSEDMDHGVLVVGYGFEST", "UniProt P07711, 292-333 limits assumed": "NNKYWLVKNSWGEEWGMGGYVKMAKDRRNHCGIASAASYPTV"}, "source": "PubChem BioAssay AID460", "about": "(PCMD, 2006)", "note": "This is a selection; strong and weak results do not stand in their true shares. Calls of active or inactive are those of the source. Cut-off read from the data, not from the text of the source: active = inhibition above about 45%; inactive = the rest."}
{"biological_target": "Procathepsin L (Homo sapiens) (UniProt P07711)", "test": "inhibitors of human cathepsin L, biochemical (AID 460);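 note: 0% = enzyme with no compound and 100% = no enzyme blank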", "conditions": "purified cathepsin L, fluorogenic substrate, fluorescence; hits give high values;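 tested at 10 µM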"}
{"smiles": "N#CC1(Nc2ccccc2)CCN(CCc2ccccc2)CC1", "inhibition": "inactive: -4.52%"}
{"smiles": "O=C(OC1CN2CCC1CC2)C1c2ccccc2Oc2ccccc21", "note": "(stereo unspecified)", "inhibition": "inactive: 3.35%"}
{"smiles": "CCOc1ncccc1C(=O)NCC1(N2CCOCC2)CCCCC1", "inhibition": "inactive: -2.65%"}
{"smiles": "CCC(CO)(C(=O)OC1CN2CCC1CC2)c1ccccc1", "note": "(stereo unspecified)", "inhibition": "inactive: -2.03%"}
{"smiles": "Fc1ccccc1NC1CCN(Cc2ccccc2)CC1", "inhibition": "inactive: -2.99%"}
{"smiles": "N/C(=N\\O)c1c(N)no[n+]1[O-]", "inhibition": "inactive: 12.5%"}
